{"source": "paper PMC2074348", "about": "“Preclinical in vivo efficacy of two 9-dihydrotaxane analogues against human and murine tumours” (British Journal of Cancer, 1996)", "tested_on": "BDF mice bearing B16F10 ascites tumours", "assay": "Maximum tolerated dose, i.p. once daily for 5 consecutive days", "conditions": "maximum dose yielding <20% lethality following five i.p. doses once daily", "data": [{"substance": "9-dihydrotaxol", "values": [{"measurement": "MTD (q.d. days 1-5)", "value": "greater than 100 mg kg-1 per day"}]}]}
